According to PubChem BioAssay AID1347075 (National Center for Advancing Translational Sciences (NCATS), 2019):
The entries are a selection whose mix differs from that of the whole data set. Records with an inconclusive call do not appear. Some salts or complexes appear as unconnected parts, following the source record. Active and inactive are the calls of the source. Calls come from the whole dose curve; as a rule, active = well fitted cell-killing curve with a large enough effect; inconclusive = small, poorly fitted or top-dose-only effect, or effect the other way; inactive = flat fitted curve, though single readings scatter.

experiment: qHTS assay for MDR1-selective chemotherapeutics: Primary screen using the parental adenocarcinoma cell KB-3-1; settings: KB-3-1 viability, CellTiter-Glo ATP luminescence, 72 h; at 46.1 µM (top of the series); note: nearly all actives have a fitted effect of over 60% in size
Description: A prime difficulty in effectively treating cancer is the development of cellular resistance to multiple structurally unrelated anticancer drugs, a phenomenon known as multidrug resistance (MDR). […] Numerous strategies to overcome P-gp-mediated MDR have been explored, including the design of drugs that evade recognition and efflux, and development of inhibitors to block efflux and restore drug accumulation. […] An alternative approach is to exploit resistance by identifying drugs that target MDR cells over the non-resistant parental cells from which they were selected. […] The development of MDR1-selective agents represents a new strategy for resolving multidrug resistance, as it remains a long-standing clinical challenge for cancer chemotherapy.
Our goal is to identify compounds that selectively kill P-gp-expressing MDR cells. We will identify MDR1-selective compounds by comparing toxicity of compounds in the screening library against parental, drug-naive (KB-3-1) adenocarcinoma cells as well as their drug-selected MDR sub-line (KB-V1). The differential toxicity of compounds against these two cell lines will be used to identify MDR1-selective compounds, whose cytotoxicity is potentiated, rather than diminished, by P-gp expression. This assay will be utilized to conduct a quantitative high-throughput screen (qHTS) in collaboration with the NIH Chemical Genomics Center to identify selective agents, and probe hits arising from the screen will be validated using secondary assays and characterized through a well-established follow-up research program. This screen was run against the entire NCGC library collection of about 400,000 compounds.
NIH Molecular Libraries Probe Production Network [MLPCN]
NIH Chemical Genomics Center [NCGC]
PI: Michael Gottesman PhD, National Cancer Institute, NIH
Briefly, 5 microL of media containing either KB-3-1 cells (columns 1-2, 4-48) are dispensed into Greiner white, treated solid-bottom 1536-well assay plates (media-only control is added to column 3). Compounds are then transferred via Kalypsys pin tool equipped with 1536-pin array (10 nL slotted pins, V&P Scientific, San Diego, CA). Following addition of compound, the plates are incubated at 37 degrees C for 72 hours. CellTiter-Glo (2.5 µL/well) is then added, and the plates are read in a ViewLux reader (Perkin-Elmer, clear luminescence filter, 1 second exposure, 1x binning) following a 10 minute incubation. All cells are dispensed in DMEM phenol-red free media containing 10% FBS.
Library plates were screened starting from the lowest and proceeding to the highest concentration. Vehicle-only plates, with DMSO being pin-transferred to columns 5-48, will be inserted uniformly at the beginning and the end of each library in order to monitor and record any shifts in the background, which can be affected by reagent dispensers or loss in enzyme activity over time. Screening data will be corrected, normalized, and concentration-effect relationships will be derived by using publicly-available NCGC, NCATS curve fitting algorithms (http://ncgc.nih.gov/pub/openhts).
% is set by controls: 0 for no effect and ±100 for the full control effect.

Row | SMILES | activity change, negative = cytotoxic
1 | CSc1ccccc1C(=O)NCC1(N2CCCCC2)CCCCC1 | inactive: 0%
2 | Cc1cccc(NC2(C#N)CCN(Cc3ccccc3)CC2)c1 | inactive: 0%
3 | O=C(NCC1(N2CCCCC2)CCCCC1)c1ccc(=O)[nH]c1 | inactive: -7.06%
4 | CCCCn1nnnc1C(CC)N1CCC(n2c(=O)[nH]c3ccccc32)CC1 (stereo not given) | inactive: 0.0302%
5 | O=C(NCC1(N2CCCCC2)CCCCC1)c1cccs1 | inactive: -4.34%
6 | CCCCn1nnnc1C(c1cccs1)N1CCC(n2c(=O)[nH]c3ccccc32)CC1 (stereo not given) | inactive: -2.92%
7 | COc1ccc(C(=O)NCC2(N3CCCCC3)CCCCC2)cc1 | inactive: -0.211%
8 | COc1ccc(C(=O)NCC2(N3CCCCC3)CCCCC2)c(OC)c1OC | inactive: -18.9%
9 | CC(C)(C)OC(=O)N1CCC(N(C(=O)c2ccccc2)c2ccc(F)cc2)CC1 | inactive: 2.28%
10 | CCC(c1nnnn1C1CCCC1)N1CCC(n2c(=O)[nH]c3ccccc32)CC1 (stereo not given) | inactive: 0.0302%
11 | CCOC(=O)N1CCC(Nc2ccc(OC)cc2)CC1 | inactive: -0.541%
12 | CCCCn1nnnc1C(c1ccc(OC)cc1)N1CCC(n2c(=O)[nH]c3ccccc32)CC1 (stereo not given) | inactive: -0.0184%
13 | O=C(NCC1(N2CCCCC2)CCCCC1)c1ccc(Cl)s1 | inactive: 11.6%
14 | N#CC1(Nc2ccccc2)CCN(Cc2ccccc2)CC1 | inactive: -12.7%
15 | O=C(OC1CN2CCC1CC2)C1c2ccccc2Oc2ccccc21 (stereo not given) | inactive: 4.96%
16 | COc1ccc(Cl)cc1C(=O)NCC1(N2CCOCC2)CCCCC1 | inactive: -2.07%
17 | O=C(NCC1(N2CCOCC2)CCCCC1)c1cc2ccccc2o1 | inactive: -3.6%
18 | O=C(NCC1(N2CCCCC2)CCCCC1)c1ccc(Cl)nc1 | inactive: 1.53%
19 | Cc1cc(C)cc(N(C(=O)c2ccccc2)C2CCN(C(=O)OC(C)(C)C)CC2)c1 | inactive: -2.67%
20 | CCCCOc1ccc(C(=O)NCC2(N3CCOCC3)CCCCC2)cc1 | inactive: -1.66%

Row | SMILES | activity change, negative = cytotoxic
21 | O=P1(N(CCCl)CCCl)SCCCS1 | inactive: 0.223%
22 | O=C(NCC1(N2CCCCC2)CCCCC1)c1ccc(F)cc1 | inactive: -22.8%
23 | CCOC(=O)N1CCC(Nc2ccc(F)cc2)CC1 | inactive: -5.17%
24 | COc1ccc(NC2CCN(CCc3ccccc3)CC2)c(OC)c1 | inactive: -12.3%
25 | COc1ccccc1C(=O)NCC1(N2CCOCC2)CCCCC1 | inactive: 0.0677%
26 | CCOc1ccc(C)cc1CN(CCCl)CCCl | inactive: -14.7%
27 | O=C(NCC1(N2CCOCC2)CCCCC1)c1ccc(Cl)cc1 | inactive: 2.27%
28 | CC(C)(C)n1nnnc1C(c1ccccc1)N1CCC(n2c(=O)[nH]c3ccccc32)CC1 (stereo not given) | inactive: -0.0835%
29 | O=C1CCN(Cc2ccccc2)CC1 | inactive: 0%
30 | O=c1[nH]c2ccccc2n1C1CCN(C(c2cccc3ccccc23)c2nnnn2C2CCCC2)CC1 (stereo not given) | inactive: -24.6%
31 | CCOC(=O)N1CCC(Nc2cccc(C)c2)CC1 | inactive: 5.58%
32 | COc1cc(C(=O)NCC2(N(C)C)CCCCC2)ccc1OC(F)F | inactive: 5.74%
33 | O=c1[nH]c2ccccc2n1C1CCN(C(c2ccccc2)c2nnnn2C2CCCCC2)CC1 (stereo not given) | inactive: -4.09%
34 | O=C(NCC1(N2CCCCC2)CCCCC1)c1cccc([N+](=O)[O-])c1 | inactive: -3.04%
35 | CCOc1ccc(C(=O)NCC2(N3CCOCC3)CCCCC2)cc1 | inactive: 10.4%
36 | CSc1ccc(C(=O)NCC2(N3CCOCC3)CCCCC2)cc1 | inactive: 15.4%
37 | CCN1CCC(Nc2ccc(Cl)cc2)CC1 | inactive: 5.62%
38 | O=C(NCC1(N2CCCCC2)CCCCC1)c1ccc(OC(F)F)cc1 | inactive: -1.51%
39 | COc1ccc(NC2CCN(C(=O)OC(C)(C)C)CC2)cc1 | inactive: 9.46%
40 | CC(C)c1ccc(C(=O)NCC2(N3CCOCC3)CCCCC2)cc1 | inactive: -1.77%

Row | SMILES | activity change, negative = cytotoxic
41 | CN1CCN(CCOC(=O)C(O)(c2ccccc2)c2ccccc2)CC1 | inactive: -2.09%
42 | O=C(NCC1(N2CCOCC2)CCCCC1)c1cc(=O)[nH]c2ccccc12 | inactive: -1.56%
43 | COc1cc(C(=O)NCC2(N3CCCCC3)CCCCC2)ccc1OC(F)F | inactive: 6.82%
44 | O=C(NCC1(N2CCCCC2)CCCCC1)c1cccc(C(F)(F)F)c1 | inactive: -10.9%
45 | O=[N+]([O-])c1cc([N+](=O)[O-])c(NCC2CCS(=O)(=O)C2)c([N+](=O)[O-])c1 (stereo not given) | inactive: 2.81%
46 | CCCCn1nnnc1C(c1ccnc2ccccc12)N1CCC(n2c(=O)[nH]c3ccccc32)CC1 (stereo not given) | inactive: 0.0528%
47 | COc1cc(OC)c(C(=O)NCC2(N(C)C)CCCCC2)cc1OC | inactive: 0.154%
48 | CCC(c1nnnn1C(C)(C)C)N1CCC(n2c(=O)[nH]c3ccccc32)CC1 (stereo not given) | inactive: -0.216%
49 | O=C(NCC1(N2CCOCC2)CCCCC1)c1cc(F)c(F)cc1Cl | inactive: 4.84%
50 | COc1ccc(CN(CCCl)CCCl)cc1Cl | inactive: 3.11%
51 | CN(C)c1cccc(C(=O)NCC2(N3CCCCC3)CCCCC2)c1 | inactive: -3.21%
52 | O=[N+]([O-])c1cc([N+](=O)[O-])c(OC2CCCCC2O)c([N+](=O)[O-])c1 (stereo not given) | inactive: -1.64%
53 | CC(C)c1ccc(NC2CCN(C(=O)OC(C)(C)C)CC2)cc1 | inactive: -8.26%
54 | Cc1ccc(C(=O)NCC2(N(C)C)CCCCC2)o1 | inactive: -21.3%
55 | O=C(NCC1(N2CCOCC2)CCCCC1)c1ccccc1Br | inactive: 6.7%
56 | CCCOc1ccc(C(=O)NCC2(N(C)C)CCCCC2)cc1OC | inactive: 0.279%
57 | COc1ccc(C(c2nnnn2C2CCCC2)N2CCC(n3c(=O)[nH]c4ccccc43)CC2)cc1 (stereo not given) | inactive: 0.0134%
58 | CN1CCC(Nc2cccc(F)c2)CC1 | inactive: -0.471%
59 | COc1ccc2c(c1O)-c1c(O)c(OC)cc3c1[C@H](C2)[N+](C)(C)CC3.O=[N+]([O-])c1cc([N+](=O)[O-])c([O-])c([N+](=O)[O-])c1[O-] | inactive: 4.95%
60 | O=C(OC1CN2CCC1CC2)c1ccc([N+](=O)[O-])cc1 (stereo not given) | inactive: -7.9%
